# Patent publication US9920057B2, “Substituted pyrazino[1′,2′:1 ,6]pyrido[3,4-b]indoles as phosphodiesterase type 5 inhibitors” (Chongqing University of Arts and Sciences, priority 2015, dated 2018)
# The chains behind the UniProt entries cited, without tags or fusion partners. Residues count along the entry.
# UniProt P27815, 1-647 isoform P27815-4: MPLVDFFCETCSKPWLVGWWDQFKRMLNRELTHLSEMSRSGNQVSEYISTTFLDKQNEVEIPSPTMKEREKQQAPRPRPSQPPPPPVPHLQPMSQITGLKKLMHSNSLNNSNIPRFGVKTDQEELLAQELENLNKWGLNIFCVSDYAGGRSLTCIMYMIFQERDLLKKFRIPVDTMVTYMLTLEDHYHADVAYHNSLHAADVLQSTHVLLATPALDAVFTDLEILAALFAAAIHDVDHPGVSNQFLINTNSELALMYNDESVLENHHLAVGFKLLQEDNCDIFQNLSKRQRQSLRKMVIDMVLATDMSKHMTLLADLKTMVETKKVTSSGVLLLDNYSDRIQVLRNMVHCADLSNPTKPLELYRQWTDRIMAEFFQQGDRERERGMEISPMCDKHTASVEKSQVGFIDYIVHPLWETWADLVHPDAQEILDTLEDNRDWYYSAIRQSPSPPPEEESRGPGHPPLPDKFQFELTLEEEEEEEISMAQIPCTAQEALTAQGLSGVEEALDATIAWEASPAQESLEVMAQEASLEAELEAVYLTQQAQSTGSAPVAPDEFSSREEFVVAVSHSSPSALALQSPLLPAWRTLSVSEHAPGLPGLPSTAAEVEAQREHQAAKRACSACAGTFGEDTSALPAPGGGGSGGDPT
# Biological target: T1, PDE4A (Homo sapiens, UniProt P27815)
# T1 construct: purchased
# Assay: Inhibition of PDE activity (assay kit)
# Type: biochemical
# Protocol: i. Supplement 99 μl assay buffer per well, then add 1 μl compound in DMSO dilution to wells of V96 MicroWell Plates and uniformly mix;
# ii. Add 5 μl compound in assay buffer dilution to each well of 96-well microplate;
# the final concentration of compound as below:
# The inhibitory potential of test compounds on several types of phosphodiesterase (PDE) activity is determined according to the protocol of assay kit.
compound,measurement,value
CN1CC(=O)N2[C@H](c3ccc4c(c3)OCO4)c3[nH]c4ccccc4c3C[C@@H]2C1=O [Cialis],IC50,> 10 µM
